The source of these data is patent US6017877A, “Method and composition for treating thrombosis” (priority 1994, dated 2000).

The chains behind the UniProt entries cited, without tags or fusion partners. Residues count along the entry.
UniProt P05106, 27-788: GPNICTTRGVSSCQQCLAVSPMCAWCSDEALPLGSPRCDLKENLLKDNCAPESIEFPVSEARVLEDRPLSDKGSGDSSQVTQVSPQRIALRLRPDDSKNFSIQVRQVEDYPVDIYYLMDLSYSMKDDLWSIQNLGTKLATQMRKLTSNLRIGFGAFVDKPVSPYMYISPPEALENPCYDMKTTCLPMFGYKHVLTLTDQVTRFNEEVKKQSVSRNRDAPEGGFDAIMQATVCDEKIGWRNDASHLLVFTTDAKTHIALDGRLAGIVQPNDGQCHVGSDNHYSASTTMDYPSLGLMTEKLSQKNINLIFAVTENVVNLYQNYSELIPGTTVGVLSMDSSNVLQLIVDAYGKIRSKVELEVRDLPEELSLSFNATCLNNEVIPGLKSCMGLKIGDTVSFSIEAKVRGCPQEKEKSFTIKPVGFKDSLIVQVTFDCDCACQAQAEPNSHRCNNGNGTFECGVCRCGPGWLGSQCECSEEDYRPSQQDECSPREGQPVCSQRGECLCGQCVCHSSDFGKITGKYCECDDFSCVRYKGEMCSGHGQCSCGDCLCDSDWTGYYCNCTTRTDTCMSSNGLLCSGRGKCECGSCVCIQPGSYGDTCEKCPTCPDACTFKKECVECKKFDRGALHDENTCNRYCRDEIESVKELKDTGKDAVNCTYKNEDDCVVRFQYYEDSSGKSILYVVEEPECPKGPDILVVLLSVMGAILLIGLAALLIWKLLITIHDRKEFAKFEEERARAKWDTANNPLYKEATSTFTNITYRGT
UniProt P06756, 891-1048 partner limits assumed: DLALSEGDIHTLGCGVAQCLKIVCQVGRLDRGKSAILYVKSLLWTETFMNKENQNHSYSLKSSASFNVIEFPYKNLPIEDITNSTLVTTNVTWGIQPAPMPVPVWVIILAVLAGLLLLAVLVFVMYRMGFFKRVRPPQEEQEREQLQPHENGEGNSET
UniProt P06756, 31-889 limits assumed: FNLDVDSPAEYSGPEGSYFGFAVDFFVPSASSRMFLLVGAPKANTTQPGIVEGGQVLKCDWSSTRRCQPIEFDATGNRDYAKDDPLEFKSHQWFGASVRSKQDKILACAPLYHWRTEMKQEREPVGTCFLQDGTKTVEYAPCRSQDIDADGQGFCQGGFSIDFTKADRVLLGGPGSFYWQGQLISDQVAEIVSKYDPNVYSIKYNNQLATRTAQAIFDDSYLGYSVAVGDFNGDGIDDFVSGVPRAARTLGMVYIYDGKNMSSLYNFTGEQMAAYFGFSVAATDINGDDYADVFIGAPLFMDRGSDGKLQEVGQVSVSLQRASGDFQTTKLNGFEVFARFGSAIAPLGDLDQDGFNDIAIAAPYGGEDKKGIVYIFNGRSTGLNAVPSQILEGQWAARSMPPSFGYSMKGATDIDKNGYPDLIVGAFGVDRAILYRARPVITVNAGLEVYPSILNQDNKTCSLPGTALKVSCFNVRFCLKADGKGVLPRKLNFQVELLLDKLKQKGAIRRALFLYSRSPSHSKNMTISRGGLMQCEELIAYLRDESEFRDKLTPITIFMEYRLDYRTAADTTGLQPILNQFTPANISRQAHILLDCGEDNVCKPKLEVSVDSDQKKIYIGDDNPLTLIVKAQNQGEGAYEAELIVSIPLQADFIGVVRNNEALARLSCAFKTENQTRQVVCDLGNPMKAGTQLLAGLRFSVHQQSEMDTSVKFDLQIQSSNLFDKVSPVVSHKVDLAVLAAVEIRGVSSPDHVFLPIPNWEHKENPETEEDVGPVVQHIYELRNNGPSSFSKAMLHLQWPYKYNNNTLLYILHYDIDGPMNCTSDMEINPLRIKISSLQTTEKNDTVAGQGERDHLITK

The target in series [1] is T1, vitronectin receptor (Vn-R) (Homo sapiens, UniProt P05106+P06756).
T1 construct: from tissue; host or cells: human placenta
Put plainly: VnR binding, ELISA or liposome attachment assay (Table I). On the procedure: Receptor and ligand purifications were performed according to the methods in this Example or those in Examaple XI.C. Receptors were purified according to the procedures of Pytela et al. (Methods Enzymol. 144:475 (1987)), incorporated herein by reference. […] After extraction, the suspension was filtered over a Sepharose 6B column and then applied to a GRGDSPK column. Except where stated, all procedures were carried out at 4° C. The peptide column was washed with three volumes of Tris-buffered saline (TBS) containing 1 mM Ca^2+ and Ca^2+ and 25 mM OG and then with TBS containing 1 mM 25 mM octyl thioglucoside (OTG) at room temperature. […] Finally, Ca^2+ and Mg^+2 were added to eluted fractions to achieve final concentrations of 1 mM for both ions.
Maxisorp microtiter plates were coated with 2 μg/ml human vitronectin dissolved in PBS ([…]) and stored overnight at 4° C. The plates were washed two times with PBS-0.05% Tween-20 (wash buffer) and blocked by incubating with about 150 μl/well of assay buffer (1%, BSA (RIA grade or better) in 50 mM Tris-HCl, 100 mM NaCl, 1 mM MgCl2, CaCl2, MnCl2 pH 7.4) for 60 minutes. Dilutions of standards were prepared and putative inhibitors (Table 2) were dissolved in assay buffer. The blocked plates were emptied and 20 μl/well of inhibitor or standard solution was added to each well. Twenty-five μl of a 30 μg/ml solution of purified αV β3 in assay buffer was pipetted into the coated plate. The final concentration of receptor in the assay well was about 15 μg/ml. The plate was incubated on a shaker for 60 minutes. Meanwhile, for each microtite plate, 6 ml buffer solution containing 1.5 μg/ml of mouse monoclonal antibody specific for β3 is prepared. To this solution was added the secondary antibody which is anti-mouse-Fc-HRP antibody conjugate. For example, for one plate, 6 ml of a 1.5 μg/ml mouse Mab solution was prepared to which was added 1 μl of anti-mouse-Fc-HRP antibody stock, (this represents a 1:6000 dilution of the antibody--HRP conjugate). This mixture was allowed to incubate during the receptor-inhibitor incubation. The assay plates were washed 4 times with PBS-Tween and 50 μl/well of the antibody mixture was then pipetted into the plate for a 60 minute incubation. The plate was washed 4 times and the color reaction was developed with 50 μl/well of 0.67 mg/ml o-phenyldiamine in PBS containing 0.012% H2 O2. Alternatively, 16 mM citric acid, 50 mM Na2 PO4 at pH 5.0 can be used as a substrate buffer. The reaction is stopped with 50 μl/well 1 M H2 SO4. The plates were read at 492-405 nm and the data analyzed by four-parameters fit.
This assay was performed with minor modifications, according to the method of Pytela et al., Methods Enzymol. 144:475 (1987), incorporated herein by reference. Briefly, 1:4 mixture of labelled and unlabelled phosphatidylcholine (PC) liposomes was dissolved under nitrogen and diluted with an equal volume of purified receptor (purified as described in Example II) to achieve a fixed predetermined receptor-liposome concentration ratio. This mixture was then dialyzed overnight at 4° C. in phosphate buffered saline (PBS) containing 1 mM Ca^2+. An aliquot of the dialyzed sample was counted to assess radioactive content; the receptor-liposome mixture was then diluted to obtain a set radioactivity per unit volume.
Microtiter plates were coated with 10 μg of vitronectin. Non-specific sites were blocked for 2 hours at 37° C. in PBS containing 5 mg/ml BSA and 1 mM each of CaCl2 and MgCl2. The plates were then rinsed twice with PBS containing 1 mM Ca^+2 and Mg^+2, and 100 μl of the liposome-receptor mixture was added to each well. If necessary, peptides were added before this step in a 1-10% dilution. The plates were then incubated at 4° C. for 24 hours. The following day, the liquid in each well was aspirated and the plates were washed twice with PBS containing 1 mM Ca^+2 and Mg^+2. […]
In general terms: In an ELISA, binding on a coated surface is turned into a signal by an enzyme label.

The nature of series [2]: Rabbit peripheral blood flow (PBF), laser dopler flow probe. The format is in vivo. The conditions noted are these: time 0 min, bolus dose printed with drug. On the procedure:
In an alternative series of experiments, (Table 2) PBF was measured quantitatively with a laser dopler flow probe (Perimed). The probe was positioned securely over the vascular bed of one ear and flow monitored continuously. Each inhibitor was infused and CBT measured in the opposing ear. No arterial catheter was placed for blood sampling, consequently XPA was measured in these animals.
As positive control, epinephrine was infused intravenously (1 mg over 2 minutes) at 60 minutes. The resulting vasoconstriction reduced flow to near 0 flow units within 5 minutes.

Broadly, the IC50 is the concentration at which inhibition is half-maximal.

In series [1], G(Pen)GRGDRPCA showed an IC50 of 470 nM. This lies in the sub-micromolar range. Take G(Pen)GRGDSPCA: the IC50 in series [1] is 150 nM. This IC50 is about 3.1-fold lower than that of the substance before. On the same count and under the same terms, the value for G(Pen)GRGDTPCA was 33 nM; that for G(Pen)IARGDWNCA was 41 nM. Still for that read-out and setting: as for G(Pen)LRGDSPCA, the figure is 260 nM; as for G(Pen)LRGDSRCA, 1350 nM; as for G(Pen)LRGDTPCA, 250 nM. The substance R(Pen)GHRGDWRCR [4Q] showed an IC50 in series [1] of 6900 nM. The same substance gave a PBF in series [2] of 282 units. Regarding R(Pmc)GHRGD(O-n-butyl-Tyr)RCR, in series [1], the IC50 came out at 2200 nM. The same measure, in the same setting: as for R(Pmc)GHRGDYRCR, the figure is 7850 nM. The same measure, in the same setting: the value for R(Pmc)NHRGD(O-Me-Tyr)-RCR was 6900 nM.
